The target of assay [1] is T1, hDRD2 (Homo sapiens, UniProt P14416).
T1 construct: host or cells: 'Cells expressing ... hDRD2'
The experiment in a line: Intracellular calcium mobilization assay (FLIPR Calcium 4), hDRD2. The assay is classed as cell-based. (A change in cytosolic calcium serves as a functional read-out for many receptors and channels.)

Protein sequences, listed by entry. Tags and fused reporters are not part of them. Lines headed by an entry give the natural chain unless they say otherwise; changes in a name come on top.
UniProt P14416, whole entry: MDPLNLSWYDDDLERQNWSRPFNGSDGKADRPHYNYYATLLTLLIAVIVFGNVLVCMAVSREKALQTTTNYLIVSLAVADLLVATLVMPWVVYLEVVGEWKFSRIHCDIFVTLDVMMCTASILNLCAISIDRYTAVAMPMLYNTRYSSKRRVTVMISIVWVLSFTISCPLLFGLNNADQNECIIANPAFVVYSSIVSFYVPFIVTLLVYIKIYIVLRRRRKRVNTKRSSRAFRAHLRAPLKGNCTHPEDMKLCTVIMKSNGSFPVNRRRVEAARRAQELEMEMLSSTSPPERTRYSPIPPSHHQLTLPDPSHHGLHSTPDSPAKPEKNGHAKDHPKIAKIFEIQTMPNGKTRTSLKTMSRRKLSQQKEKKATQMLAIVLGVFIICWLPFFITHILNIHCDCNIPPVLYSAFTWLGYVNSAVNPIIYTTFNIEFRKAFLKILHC
UniProt P30874: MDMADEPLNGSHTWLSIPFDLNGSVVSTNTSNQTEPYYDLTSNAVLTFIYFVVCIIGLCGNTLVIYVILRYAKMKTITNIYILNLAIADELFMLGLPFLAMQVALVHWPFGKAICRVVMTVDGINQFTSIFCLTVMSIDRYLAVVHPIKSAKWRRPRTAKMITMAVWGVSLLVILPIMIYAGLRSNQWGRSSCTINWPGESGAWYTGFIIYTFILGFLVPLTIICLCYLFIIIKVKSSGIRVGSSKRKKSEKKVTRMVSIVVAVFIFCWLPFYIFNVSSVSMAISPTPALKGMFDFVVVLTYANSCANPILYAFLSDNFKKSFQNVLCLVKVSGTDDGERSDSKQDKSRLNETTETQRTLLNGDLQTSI

Assay [2] addresses T2, hSSTR2 (Homo sapiens, UniProt P30874).
T2 construct: host or cells: 'Cells expressing hSSTR2'
As to the kind of experiment: Intracellular calcium mobilization assay (FLIPR Calcium 4), hSSTR2. The note with it: receptor not named; fits hSSTR2 values. The assay is classed as cell-based.

Bridge positions count the residues as written; N and C are the ends. Square brackets hold non-standard residues; d marks the D form. Peptide text beside a SMILES is read from it. * marks the point of attachment. X2 = CN1C[C@H](CSCC(=O)*)C[C@@H]2c3cccc4[nH]cc(c34)C[C@H]21; 4Pal = N[C@@H](Cc1ccncc1)C(=O)O

Usually EC50 stands for the concentration that produces a half-maximal response. As usually defined, the Emax is the maximal effect, on the per cent scale that the assay sets.

Take `C[C@@H](O)[C@@H]1NC(=O)[C@H](CCCCN)NC(=O)[C@@H](Cc2c[nH]c3ccccc23)NC(=O)[C@H](Cc2ccccc2)NC(=O)[C@H](Cc2ccccc2)NC(=O)[C@H](CCCNC(=N)N)NC(=O)[C@H](NC(=O)CSC[C@@H]2C[C@@H]3c4cccc5[nH]cc(c45)C[C@H]3N(C)C2)CCCCNC(=O)[C@H](Cc2ccccc2)NC1=O` [Compound 44, Dop1-cyclo(DLys-Arg-Phe-Phe-DTrp-Lys-Thr-Phe)]: the EC50 in assay [1] came to 232 ± 33.1 nM. Further, the Emax in assay [1] (read-out: hDRD2 % Emax ± SEM) was 59.9 ± 0.5%. On to `C[C@@H](O)[C@@H]1NC(=O)[C@H](CCCCN)NC(=O)[C@@H](Cc2c[nH]c3ccccc23)NC(=O)[C@H](Cc2ccncc2)NC(=O)[C@H](Cc2ccccc2)NC(=O)[C@H](CCCNC(=N)N)NC(=O)[C@H](NC(=O)CSC[C@@H]2C[C@@H]3c4cccc5[nH]cc(c45)C[C@H]3N(C)C2)CCCCNC(=O)[C@H](Cc2ccccc2)NC1=O` [Compound 24, Dop1-cyclo(DLys-Arg-Phe-4Pal-DTrp-Lys-Thr-Phe)] (X2-[dK]RF[4Pal][dW]KTF; lactam 1-C), for which the “EC50 fold lower than Reference Compound A” value in assay [2] is reported as “about 9 fold”.
